Values quoted from earlier work as cited in publication PMC11505038, “Kalata B1 Enhances Temozolomide Toxicity to Glioblastoma Cells” (Biomedicines, 2024).

Tested on: blood–brain barrier
Settings: mouse model; cited from earlier work

chlorotoxin
Passage across the blood–brain barrier: did cross the blood–brain barrier
